Source: US7041694B1, “Cyclooxygenase-2 inhibition” (Cornell Research Foundation, Inc., priority 1997, dated 2006)

System: patient with chronic viral hepatitis C
Details: 6 mg/kg oral daily for 12 months, with subcutaneous interferon alpha-2b 3 MU three times a week for six months

## NS(=O)(=O)c1ccc(-n2nc(C(F)(F)F)cc2-c2ccc(Cl)cc2)cc1 [4-[5-(4-Chlorophenyl)-3-(trifluoromethyl)-1H-pyrazol-1-yl]benzenesulfonamide]
  liver enzymes: sustained normalization of liver enzymes
